Patent publication US20210395313A1, “PEPTIDE PAC1 ANTAGONISTS” (AMGEN INC., priority 2017, published 2021)

Molecular target: T1, rat PAC1 receptor (Rattus norvegicus, UniProt P32215)
T1 construct: SHSY-5Y (human neuroblastoma cell line) and RG-2 (rat glioma cell line) cells endogenously express human and rat PAC1 receptors, respectively; endogenous in cells; host or cells: RG-2 rat glioma cells
T1 sequence (P32215 20-523): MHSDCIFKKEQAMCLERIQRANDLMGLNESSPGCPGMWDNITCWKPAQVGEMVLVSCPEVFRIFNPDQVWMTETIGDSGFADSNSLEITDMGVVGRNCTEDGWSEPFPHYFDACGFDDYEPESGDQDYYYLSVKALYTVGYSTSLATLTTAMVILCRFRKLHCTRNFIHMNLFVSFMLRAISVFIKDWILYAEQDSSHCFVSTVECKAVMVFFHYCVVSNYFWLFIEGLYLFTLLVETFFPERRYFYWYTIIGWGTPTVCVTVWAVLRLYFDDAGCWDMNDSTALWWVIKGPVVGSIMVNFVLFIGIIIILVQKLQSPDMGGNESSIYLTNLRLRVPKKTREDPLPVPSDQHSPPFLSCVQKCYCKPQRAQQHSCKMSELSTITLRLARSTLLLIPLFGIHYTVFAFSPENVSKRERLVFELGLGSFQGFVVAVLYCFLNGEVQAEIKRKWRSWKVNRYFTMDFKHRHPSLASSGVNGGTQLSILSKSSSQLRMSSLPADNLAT
Experiment: LANCE Ultra cAMP accumulation antagonist assay in RG-2 cells;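 note: RG-2 rat glioma cells endogenously expressing PAC1, test peptide preincubated 30 min, then PAC1 agonist added at its EC80 for 15 min, cAMP accumulation read by LANCE Ultra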
Format: cell-based

| SMILES | IC50 [nM] |
| --- | --- |
| CC[C@H](C)[C@H](NC(=O)[C@H](C)NC(=O)[C@H](CCCCN)NC(=O)[C@H](CCCNC(=N)N)NC(=O)[C@H](Cc1ccccc1)NC(=O)[C@H](CCC(N)=O)NC(=O)[C@@H]1CSSC[C@H](N)C(=O)N[C@@H](CC(=O)O)C(=O)N[C@@H](C)C(=O)N[C@@H]([C@@H](C)O)C(=O)N1)C(=O)N[C@@H](CC(=O)O)C(=O)N[C@@H](CC(=O)O)C(=O)N[C@H]1CSSC[C@@H](C(=O)N[C@@H](CCSC)C(=O)N[C@@H](CCCCN)C(=O)N[C@@H](CCC(N)=O)C(=O)N[C@@H](CCCCN)C(=O)N[C@@H](CCCCN)C(=O)N[C@@H](CCCCN)C(=O)N[C@@H](CCC(=O)O)C(=O)N[C@@H](Cc2ccccc2)C(=O)N[C@@H](CCCCN)C(=O)N[C@@H](C)C(=O)NCC(N)=O)NC(=O)C(C)(C)NC(=O)[C@H](CCCCN)NC(=O)[C@H](Cc2ccccc2)NC(=O)[C@H](C(C)C)NC(=O)[C@H](CO)NC(=O)[C@H](CC(N)=O)NC(=O)CNC(=O)[C@H](C(C)C)NC(=O)[C@H](CC(N)=O)NC(=O)[C@H](CO)NC(=O)[C@H](Cc2c[nH]cn2)NC(=O)[C@H](Cc2c[nH]cn2)NC(=O)[C@H](C)NC(=O)[C@H](CCC(N)=O)NC(=O)[C@H](CCCCN)NC(=O)[C@H](CCC(N)=O)NC1=O [compound 194] | 0.01 to 1 |
| CC[C@H](C)[C@H](NC(=O)[C@H](C)NC(=O)[C@H](CCCCN)NC(=O)[C@H](CCCNC(=N)N)NC(=O)[C@H](Cc1ccccc1)NC(=O)[C@H](CCC(N)=O)NC(=O)[C@@H]1CSSC[C@H](N)C(=O)N[C@@H](CC(=O)O)C(=O)N[C@@H](C)C(=O)N[C@@H]([C@@H](C)O)C(=O)N1)C(=O)N[C@@H](CC(=O)O)C(=O)N[C@@H](CC(=O)O)C(=O)N[C@H]1CSSC[C@@H](C(=O)N[C@@H](CCSC)C(=O)N[C@@H](CCCCN)C(=O)N[C@@H](CCC(N)=O)C(=O)N[C@@H](CCCCN)C(=O)N[C@@H](CCCCN)C(=O)N[C@@H](CCCCN)C(=O)N[C@@H](CCC(=O)O)C(=O)N[C@@H](Cc2ccccc2)C(=O)N[C@@H](CCCCN)C(=O)N[C@@H](C)C(=O)NCC(N)=O)NC(=O)C(C)(C)NC(=O)[C@H](CCCCN)NC(=O)[C@H](Cc2ccccc2)NC(=O)[C@H](C(C)C)NC(=O)[C@H](CO)NC(=O)[C@H](C(C)C)NC(=O)[C@H](CO)NC(=O)[C@H]([C@@H](C)O)NC(=O)[C@H](CCC(N)=O)NC(=O)[C@H](CC(C)C)NC(=O)CNC(=O)[C@@H]2CCCN2C(=O)[C@H](C(C)C)NC(=O)[C@H](CC(N)=O)NC(=O)[C@H](CO)NC(=O)[C@H](Cc2c[nH]cn2)NC(=O)[C@H](Cc2c[nH]cn2)NC(=O)[C@H](C)NC(=O)[C@H](CCC(N)=O)NC(=O)[C@H](CCCCN)NC(=O)[C@H](CCC(N)=O)NC1=O [compound 197] | 0.01 to 1 |
| CC[C@H](C)[C@H](NC(=O)[C@H](C)NC(=O)[C@H](CCCCN)NC(=O)[C@H](CCCNC(=N)N)NC(=O)[C@H](Cc1ccccc1)NC(=O)[C@H](CCC(N)=O)NC(=O)[C@@H]1CSSC[C@H](N)C(=O)N[C@@H](CC(=O)O)C(=O)N[C@@H](C)C(=O)N[C@@H]([C@@H](C)O)C(=O)N1)C(=O)N[C@@H](CC(=O)O)C(=O)N[C@@H](CC(=O)O)C(=O)N[C@H]1CSSC[C@@H](C(=O)N[C@@H](CCSC)C(=O)N[C@@H](CCCCN)C(=O)N[C@@H](CCC(N)=O)C(=O)N[C@@H](CCCCN)C(=O)N[C@@H](CCCCN)C(=O)N[C@@H](CCCCN)C(=O)N[C@@H](CCC(=O)O)C(=O)N[C@@H](Cc2ccccc2)C(=O)N[C@@H](CCCCN)C(=O)N[C@@H](C)C(=O)NCC(N)=O)NC(=O)C(C)(C)NC(=O)[C@H](CCCCN)NC(=O)[C@H](Cc2ccccc2)NC(=O)[C@H](C(C)C)NC(=O)C(C)(C)NC(=O)CNC(=O)[C@@H]2CCCN2C(=O)[C@H](C(C)C)NC(=O)[C@H](CC(N)=O)NC(=O)[C@H](CO)NC(=O)[C@H](Cc2c[nH]cn2)NC(=O)[C@H](Cc2c[nH]cn2)NC(=O)[C@H](C)NC(=O)[C@H](CCC(N)=O)NC(=O)[C@H](CCCCN)NC(=O)[C@H](CCC(N)=O)NC1=O [compound 198] | 0.01 to 1 |
| CC[C@H](C)[C@H](NC(=O)[C@H](C)NC(=O)[C@H](CCCCN)NC(=O)[C@H](CCCNC(=N)N)NC(=O)[C@H](Cc1ccccc1)NC(=O)[C@H](CCC(N)=O)NC(=O)[C@@H]1CSSC[C@H](N)C(=O)N[C@@H](CC(=O)O)C(=O)N[C@@H](C)C(=O)N[C@@H]([C@@H](C)O)C(=O)N1)C(=O)N[C@@H](CC(=O)O)C(=O)N[C@@H](CC(=O)O)C(=O)N[C@H]1CSSC[C@@H](C(=O)N[C@@H](CCSC)C(=O)N[C@@H](CCCCN)C(=O)N[C@@H](CCC(N)=O)C(=O)N[C@@H](CCCCN)C(=O)N[C@@H](CCCCN)C(=O)N[C@@H](CCCCN)C(=O)N[C@@H](CCC(=O)O)C(=O)N[C@@H](Cc2ccccc2)C(=O)N[C@@H](CCCCN)C(=O)N[C@@H](C)C(=O)NCC(N)=O)NC(=O)C(C)(C)NC(=O)[C@H](CCCCN)NC(=O)[C@H](Cc2ccccc2)NC(=O)[C@H](C(C)C)NC(=O)[C@H](CC(=O)O)NC(=O)CNC(=O)[C@@H]2CCCN2C(=O)[C@H](C(C)C)NC(=O)[C@H](CC(N)=O)NC(=O)[C@H](CO)NC(=O)[C@H](Cc2c[nH]cn2)NC(=O)[C@H](Cc2c[nH]cn2)NC(=O)[C@H](C)NC(=O)[C@H](CCC(N)=O)NC(=O)[C@H](CCCCN)NC(=O)[C@H](CCC(N)=O)NC1=O [compound 200] | 0.01 to 1 |
| CC[C@H](C)[C@H](NC(=O)[C@H](C)NC(=O)[C@H](CCCCN)NC(=O)[C@H](CCCNC(=N)N)NC(=O)[C@H](Cc1ccccc1)NC(=O)[C@H](CCC(N)=O)NC(=O)[C@@H]1CSSC[C@H](N)C(=O)N[C@@H](CC(=O)O)C(=O)N[C@@H](C)C(=O)N[C@@H]([C@@H](C)O)C(=O)N1)C(=O)N[C@@H](CC(=O)O)C(=O)N[C@@H](CC(=O)O)C(=O)N[C@H]1CSSC[C@@H](C(=O)N[C@@H](CCSC)C(=O)N[C@@H](CCCCN)C(=O)N[C@@H](CCC(N)=O)C(=O)N[C@@H](CCCCN)C(=O)N[C@@H](CCCCN)C(=O)N[C@@H](CCCCN)C(=O)N[C@@H](CCC(=O)O)C(=O)N[C@@H](Cc2ccccc2)C(=O)N[C@@H](CCCCN)C(=O)N[C@@H](C)C(=O)NCC(N)=O)NC(=O)C(C)(C)NC(=O)[C@H](CCCCN)NC(=O)[C@H](Cc2ccccc2)NC(=O)[C@H](CO)NC(=O)CNC(=O)[C@@H]2CCCN2C(=O)[C@H](C(C)C)NC(=O)[C@H](CC(N)=O)NC(=O)[C@H](CO)NC(=O)[C@H](Cc2c[nH]cn2)NC(=O)[C@H](Cc2ccc(O)cc2)NC(=O)[C@H](C)NC(=O)[C@H](CCC(N)=O)NC(=O)[C@H](CCCCN)NC(=O)[C@H](CC(=O)O)NC1=O [compound 201] | 0.01 to 1 |
| CC[C@H](C)[C@H](NC(=O)[C@H](C)NC(=O)[C@H](CCCCN)NC(=O)[C@H](CCCNC(=N)N)NC(=O)[C@H](Cc1ccccc1)NC(=O)[C@H](CCC(N)=O)NC(=O)[C@@H]1CSSC[C@H](N)C(=O)N[C@@H](CC(=O)O)C(=O)N[C@@H](C)C(=O)N[C@@H]([C@@H](C)O)C(=O)N1)C(=O)N[C@@H](CCC(=O)O)C(=O)N[C@@H](CC(=O)O)C(=O)N[C@H]1CSSC[C@@H](C(=O)N[C@@H](CCSC)C(=O)N[C@@H](CCCCN)C(=O)N[C@@H](CCC(N)=O)C(=O)N[C@@H](CCCCN)C(=O)N[C@@H](CCCCN)C(=O)N[C@@H](CCCCN)C(=O)N[C@@H](CCC(=O)O)C(=O)N[C@@H](Cc2ccccc2)C(=O)N[C@@H](CCCCN)C(=O)N[C@@H](C)C(=O)NCC(N)=O)NC(=O)C(C)(C)NC(=O)[C@H](CCCCN)NC(=O)[C@H](Cc2ccccc2)NC(=O)[C@H](C(C)C)NC(=O)[C@H](CO)NC(=O)CNC(=O)[C@@H]2CCCN2C(=O)[C@H](C(C)C)NC(=O)[C@H](CC(N)=O)NC(=O)[C@H](CO)NC(=O)[C@H](Cc2c[nH]cn2)NC(=O)[C@H](Cc2c[nH]cn2)NC(=O)[C@H](C)NC(=O)[C@H](CCC(N)=O)NC(=O)[C@H](CCCCN)NC(=O)[C@H](CCC(N)=O)NC1=O [compound 203] | 0.01 to 1 |
| CC[C@H](C)[C@H](NC(=O)[C@H](C)NC(=O)[C@H](CCCCN)NC(=O)[C@H](CCCNC(=N)N)NC(=O)[C@H](Cc1ccccc1)NC(=O)[C@H](CCC(N)=O)NC(=O)[C@@H]1CSSC[C@H](N)C(=O)N[C@@H](CC(=O)O)C(=O)N[C@@H](C)C(=O)N[C@@H]([C@@H](C)O)C(=O)N1)C(=O)N[C@@H](CC(=O)O)C(=O)N[C@@H](CC(=O)O)C(=O)N[C@H]1CSSC[C@@H](C(=O)N[C@@H](CCSC)C(=O)N[C@@H](CCCCN)C(=O)N[C@@H](CCC(N)=O)C(=O)N[C@@H](CCCCN)C(=O)N[C@@H](CCCCN)C(=O)N[C@@H](CCCCN)C(=O)N[C@@H](CCC(=O)O)C(=O)N[C@@H](Cc2ccccc2)C(=O)N[C@@H](CCCCN)C(=O)N[C@@H](C)C(=O)N[C@@H](CC(N)=O)C(=O)O)NC(=O)C(C)(C)NC(=O)[C@H](CCCCN)NC(=O)[C@H](Cc2ccccc2)NC(=O)[C@H](C(C)C)NC(=O)[C@H](CO)NC(=O)CNC(=O)[C@@H]2CCCN2C(=O)[C@H](C(C)C)NC(=O)[C@H](CC(N)=O)NC(=O)[C@H](CO)NC(=O)[C@H](Cc2c[nH]cn2)NC(=O)[C@H](Cc2c[nH]cn2)NC(=O)[C@H](C)NC(=O)[C@H](CCC(N)=O)NC(=O)[C@H](CCCCN)NC(=O)[C@H](CCC(N)=O)NC1=O [compound 206] | 0.01 to 1 |
